This is an account of results in patent publication US6444670B2 (Wyeth, priority 1998, dated 2002).

The chains behind the UniProt entries cited, without tags or fusion partners. Where a name states a change or a piece, a line headed by the entry shows the natural chain unless it says otherwise.
UniProt P18031: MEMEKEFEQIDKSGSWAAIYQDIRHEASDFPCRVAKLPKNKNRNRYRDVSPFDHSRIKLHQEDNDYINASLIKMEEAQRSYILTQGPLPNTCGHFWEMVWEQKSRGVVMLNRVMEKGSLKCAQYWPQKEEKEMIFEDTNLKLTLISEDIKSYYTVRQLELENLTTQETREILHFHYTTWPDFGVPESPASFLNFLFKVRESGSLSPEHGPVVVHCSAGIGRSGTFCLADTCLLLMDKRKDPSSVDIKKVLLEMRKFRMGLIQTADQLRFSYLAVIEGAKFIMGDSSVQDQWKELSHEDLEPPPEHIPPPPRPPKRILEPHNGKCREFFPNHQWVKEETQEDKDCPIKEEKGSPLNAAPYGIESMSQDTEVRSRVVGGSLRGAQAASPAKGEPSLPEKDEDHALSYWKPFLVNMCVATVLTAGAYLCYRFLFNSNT

pIC50: −log10 of the molar value.

For test [1], the target named is Human recombinant PTP1B (hPTP1B) (Homo sapiens, UniProt P18031). Kind of test: Inhibition of tri-phosphorylated insulin receptor dodecaphosphopeptide dephosphorylation by hPTP1B. It counts as biochemical.
Test [2] concerns rat hepatic microsomal PTPases. Kind of test: Inhibition of tri-phosphorylated insulin receptor dodecaphosphopeptide dephosphorylation by rat hepatic PTPases. The conditions noted are these: 50 μM compound.

In the case of Phenylarsine oxide, the pIC50 (as a rule, the IC50 on a negative log10 scale, so that one unit is a factor of ten) in test [1] was 4.40. Further, in test [2], the “% Change from Control” value is reported as −57.06%.
